The values that follow come from paper doi:10.1101/2025.03.14.643303, “A genome-scale drug discovery pipeline uncovers new therapeutic targets and a unique p97 allosteric binding site in Schistosoma mansoni” (bioRxiv, 2025).

The chains behind the UniProt entries cited, without tags or fusion partners.
UniProt P55072, whole entry: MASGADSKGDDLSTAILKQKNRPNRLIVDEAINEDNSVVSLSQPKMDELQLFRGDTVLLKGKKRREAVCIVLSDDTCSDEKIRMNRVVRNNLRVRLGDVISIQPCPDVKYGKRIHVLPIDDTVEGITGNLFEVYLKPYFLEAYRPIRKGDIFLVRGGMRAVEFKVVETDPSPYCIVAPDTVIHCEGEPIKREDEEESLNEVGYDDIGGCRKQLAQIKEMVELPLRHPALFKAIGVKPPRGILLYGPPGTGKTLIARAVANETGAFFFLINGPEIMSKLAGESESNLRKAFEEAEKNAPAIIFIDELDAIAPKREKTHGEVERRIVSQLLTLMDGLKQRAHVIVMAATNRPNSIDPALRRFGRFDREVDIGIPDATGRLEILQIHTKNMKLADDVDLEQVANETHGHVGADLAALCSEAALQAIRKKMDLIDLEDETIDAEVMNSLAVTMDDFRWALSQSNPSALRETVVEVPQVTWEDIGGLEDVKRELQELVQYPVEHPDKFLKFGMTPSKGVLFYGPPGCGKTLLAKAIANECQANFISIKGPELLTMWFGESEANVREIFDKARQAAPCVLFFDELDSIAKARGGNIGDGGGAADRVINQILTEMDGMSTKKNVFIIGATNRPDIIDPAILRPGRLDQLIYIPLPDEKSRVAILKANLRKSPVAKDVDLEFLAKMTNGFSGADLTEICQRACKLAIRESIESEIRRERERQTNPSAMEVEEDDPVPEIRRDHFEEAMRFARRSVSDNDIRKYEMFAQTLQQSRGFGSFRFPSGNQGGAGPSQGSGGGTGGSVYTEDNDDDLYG
UniProt G4M0P7, entry or part of it: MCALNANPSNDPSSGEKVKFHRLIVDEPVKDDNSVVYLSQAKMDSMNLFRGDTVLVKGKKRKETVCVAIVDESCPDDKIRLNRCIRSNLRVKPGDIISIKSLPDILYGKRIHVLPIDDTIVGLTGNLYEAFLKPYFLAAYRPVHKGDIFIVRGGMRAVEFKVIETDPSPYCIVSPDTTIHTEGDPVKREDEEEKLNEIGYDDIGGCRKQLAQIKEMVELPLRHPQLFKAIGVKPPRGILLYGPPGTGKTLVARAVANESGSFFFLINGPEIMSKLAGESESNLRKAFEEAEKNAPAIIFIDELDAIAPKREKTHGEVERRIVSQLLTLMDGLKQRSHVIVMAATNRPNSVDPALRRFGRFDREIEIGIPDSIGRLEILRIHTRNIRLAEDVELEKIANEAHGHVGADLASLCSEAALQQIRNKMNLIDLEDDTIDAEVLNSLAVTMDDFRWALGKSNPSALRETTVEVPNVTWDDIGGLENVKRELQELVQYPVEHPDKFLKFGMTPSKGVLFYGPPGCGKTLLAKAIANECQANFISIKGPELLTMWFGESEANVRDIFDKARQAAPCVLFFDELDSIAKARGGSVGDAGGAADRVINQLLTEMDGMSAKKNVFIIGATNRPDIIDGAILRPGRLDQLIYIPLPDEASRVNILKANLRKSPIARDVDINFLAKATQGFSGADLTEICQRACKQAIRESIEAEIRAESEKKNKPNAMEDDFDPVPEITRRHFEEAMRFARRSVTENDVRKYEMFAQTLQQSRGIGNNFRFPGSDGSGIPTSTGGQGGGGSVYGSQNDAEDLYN

For one assay, the target named is T1, H. sapiens p97 (P55072) (Homo sapiens, UniProt P55072).
T1 construct: 6xHis (C); made in house; host or cells: E. coli BL21 (DE3)
The assay can be described thus: p97 ATPase activity, ATP consumption assay (Kinase-Glo), IC50 / counter screen. In kind it is biochemical. On the technique in general: Kinase-Glo measures the ATP left after a reaction by luminescence.

The test system of the next assay is adult S. mansoni worms. The assay can be described thus: Treatment of adult S. mansoni worms in culture with inhibitors (attachment to tissue culture substrate, morphology; single 10 μM and dose-response EC50). In kind it is cell-based, Schistosoma mansoni. The settings on record: for EC50: Schistosoma mansoni, adult parasites, fraction of worms attached, 72 hours of drug treatment, in culture until D5, 50 μM - 10 nM, Suppl. Fig. 9C. The protocol:
Adult S. mansoni (NMRI strain) (6–7 weeks post-infection) worms were harvested from infected female Swiss Webster mice by hepatic portal vein perfusion using 37°C DMEM (Mediatech, Manassas, VA), 8% Horse Serum, and heparin.
Roughly 5 adult worm pairs were placed in 3mL Basch medium in a 12-well culture vessel, and incubated at 37°C, 5% CO2 for the length of the experiment. Compound was administered at D0, D1, and D2, media and drug refreshed every 24 hr. Worms were then allowed to remain in culture until D5, where a final assessment of worm attachment to tissue culture substate was made by light microscopy. Observations on movement and morphology were also recorded. A negative control (0.1% DMSO) and positive control (PZQ; 10 μM in 0.1% DMSO) were included in each experiment, and each experiment was repeated in triplicate for validation. For compounds that caused complete detachment in replicate experiments, the treatment was expanded to three concentrations (10 μM, 5 μM, and 1 μM) following the same treatment schedule and controls as detailed above. […] Each titration experiment was performed in triplicate according to the treatment regimen described above, using DMSO and PZQ as appropriate controls. Morphologies and motility were assessed by light microscopy, and dose-response curves were calculated using the primary readout of parasite attachment to tissue culture substrate in GraphPad Prism. […]
[…] Values were calculated using Prism.

Assay [1] addresses S. mansoni p97 (Smp_018240) (Schistosoma mansoni, UniProt G4M0P7). The assay can be described thus: biochemical. On the procedure:
E. coli BL21 (DE3) containing the desired plasmid were grown in LB medium containing […] kanamycin while shaking at 37 °C to an OD600 of 0.6–0.8. The temperature was reduced to 18°C and 0.8 mM isopropyl-beta-D-thiogalactopyranoside (IPTG) was added. The bacterial culture was harvested 16hr later by centrifugation. The resulting pellet was suspended in 60 mL lysis buffer/2L bacterial culture [20 mM Tris (pH 7.4), 300 mM NaCl, 5 mM MgCl2, 20 mM imidazole, 1% Triton X-100, 1 mg/mL lysozyme, 10% glycerol, 3 mM β-mercaptoethanol, 0.2 mM PMSF, and protease inhibitor tablet (Roche)]. […] The lysate was centrifuged at 40,000 × rpm for 35 min at 4°C. The resulting supernatant was incubated with Ni-NTA beads equilibrated to lysis buffer for 1 hr at 4°C before being loaded onto a gravity column. The bead bed was washed with wash buffer [20 mM Tris (pH 7.4), 500 mM NaCl, 5 mM MgCl2, 40 mM imidazole, 0.05% Triton X-100, 10% glycerol, 3 mM β-mercaptoethanol, 0.2 mM PMSF, 0.001 mg/mL Aprotinin, and 0.002 mg/mL Leupeptin], then eluted in the same buffer with 250 mM imidazole in wash buffer. Fractions containing p97 were concentrated using Pierce Protein Concentrators (100k MWCO) and loaded onto a gel-filtration column (Superdex 200PG) and eluted using SEC buffer [20 mM Tris (pH 7.4), 180 mM NaCl, 5 mM MgCl2, and 10% glycerol] at 0.5 mL/min flow rate on a BioRad NGC Chromatography System. Fractions corresponding to an apparent molecular weight of 500 – 600 kDa were collected and analyzed by 4–20% SDS/PAGE to evaluate purity. Concentration was determined using a BSA standard. Fractions containing purified protein were aliquoted, snap frozen in liquid nitrogen, and stored at −80 °C until use.
For manual ATP consumption assays, 1 μM p97 was incubated with 1% DMSO or inhibitor (1% DMSO final) in assay buffer [50 mM Tris (pH 7.5), 20 mM MgCl2, 1 mM EDTA, 0.5 mM tris(2-carboxyethyl)phosphine (TCEP)] for 5 minutes prior to the addition of 20 μM ATP in a 384-well plate for a total reaction volume of 10 μL, and a final concentration of 500nM enzyme and 10 μM ATP. The reaction was allowed to proceed for 50 minutes at room temperature before adding equivalent volume of Kinase-Glo Plus reagent (Promega), and a further incubation of 10 minutes in the dark.
IC50 values were calculated using GraphPad Prism.

The next assay deals with HepG2 cells. The assay can be described thus: HepG2 cytotoxicity assay (Cell Titer Glo 2.0). It counts as cell-based. The settings on record: Homo sapiens. On the procedure:
HepG2 cells (ATCC) were plated at 2500 cells/well in 50 μL/well, dispersing cells using a 25g needle to break up clumps prior to plating. Plates were incubated for 24hr at 37C, 5% CO2. Following 24hr, 50 μL media containing 0.6% DMSO was added to a set of wells on one plate. The plate and Cell Titer Glo 2.0 reagent were brought to RT. A T=0 read was taken by adding 40 μL reagent/well, rocking the plate at 100 rpm for 2 min, then reading luminescence ~10 min later. […] 50 μL 2x concentrated compound was added to wells containing cells in 50 μL 24 hr after plating. Concentrations were tested in triplicate at following values: 30, 10, 3.3, 1.1, 0.37, 0.12, and 0.04 μM. Plates were incubated for 72 hr at 37C, 5% CO2. Following equilibration to room temperature, 40 μL undiluted reagent was added to each well, the plate rocked at 100 rpm for 2 min and then read for luminescent signal ~10 min later.
Values are plotted in excel and the 50% point determined by interpolation. Values were revisualized in Prism.

Read-outs that look alike come from different tables or passages of the source.

Usually IC50 stands for the concentration at which inhibition is half-maximal. As a reminder, the EC50 is the midpoint of the concentration-response curve. Read a high EC50 as a less potent agent. In turn, `O=C(C#CC1CCCCC1)Nc1ccc2oc(-c3ccccn3)nc2c1` [Compound 733, 3-cyclohexyl-N-(2-(pyridin-2-yl)benzo[d]oxazol-5-yl)propiolamide] showed a half-inhibitory concentration (IC50) against H. sapiens p97 (P55072) of 43 ± 4.4 µM. This compound had a 50% effective concentration (EC50) in the assay with adult S. mansoni worms of 3200 nM. The “effect on adult worms” value in the assay on adult S. mansoni worms (benzoxazole propiolamide series, 10 μM, treated 72 hours, monitored until D5) is given as “still active on worms”. Also, in assay [1], the “Fold Selectivity” value was 1.3, half-maximal inhibition (IC50) required 34 ± 1.6 µM and the “activity on the enzyme” value was “abolishing activity on the enzyme”.
The term GI50 denotes the concentration at which growth is held to half of that of the control. In the case of `O=C(C#Cc1ccncc1)Nc1ccc2oc(-c3ccc(C(F)(F)F)cn3)nc2c1` [Compound 808, 3-(pyridin-4-yl)-N-(2-(5-(trifluoromethyl)pyridin-2-yl)benzo[d]oxazol-5-yl)propiolamide], the IC50 against H. sapiens p97 (P55072) was 0.41 ± 0.084 µM; in assay [1], 0.18 ± 0.026 µM; with HepG2 cells (HepG2, 72 h), 3.4 µM; in the assay with HepG2 cells (HepG2, read-out: HepG2 IC50) it was 3.4 µM. This compound gave a half-maximal effective concentration (EC50) in the assay with adult S. mansoni worms of 2400 nM. The “Fold Selectivity” value in assay [1] turned out to be 2.3. The GI50 in the assay on HepG2 cells (HepG2, 72 h) came to 2600 nM; with HepG2 cells (HepG2, read-out: HepG2 GI50), 2600 nM.
